Data published in publication PMC10907358, “Identification of oleic acid as an endogenous ligand of GPR3” (Cell Research, 2024).

Protein sequences, listed by entry. Tags and fused reporters are not part of them. Lines headed by an entry give the natural chain unless they say otherwise; changes in a name come on top.
UniProt P46089: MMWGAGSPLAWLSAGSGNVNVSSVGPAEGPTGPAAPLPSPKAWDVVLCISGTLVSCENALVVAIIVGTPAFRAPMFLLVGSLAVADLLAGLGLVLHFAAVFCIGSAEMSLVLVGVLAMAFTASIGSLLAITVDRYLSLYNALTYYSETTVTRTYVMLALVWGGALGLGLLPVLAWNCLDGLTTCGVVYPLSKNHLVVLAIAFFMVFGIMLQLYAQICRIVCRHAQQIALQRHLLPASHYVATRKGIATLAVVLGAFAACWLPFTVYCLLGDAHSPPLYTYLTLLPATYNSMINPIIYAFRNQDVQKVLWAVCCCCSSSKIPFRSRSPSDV

Target: T1, GPR3 (Homo sapiens, UniProt P46089)
T1 construct: expressed in transfected cells
Experiment: GloSensor cAMP assay in GPR3 stably expressing AD293 cell line (agonist mode)
Assay type: cell-based
Details: Ec50, cAMP induction
Protocol: The GloSensor cAMP assay was performed according to the instructions of Promega. AD293 cells were split into 6-well plate (300,000 cells/mL) and then transfected with the pGloSensor™-22F cAMP plasmid and pcDNA3-GPR3 plasmid by Lipofectamine 2000, at a ratio of 2:1 (μL:μg). 24 h after transfection, cells were split into 96-well plate for another 24 h incubation. After removal of cell medium, 90 μL of 3% v/v (the GloSensor cAMP reagent vs serum-free medium) substrate was added into each well. After 2 h incubation at RT, background measurements were taken, and then 10 μL 10× stock compounds were added for the second measurements of ligand activation via EnVision 2105 (PerkinElmer). Relative cAMP level was calculated by the cAMP level after addition of ligand divided by the cAMP level before addition of ligand (basal level). Stock FAs (i.e., 10–50 mM) were solubilized in DMSO, then diluted in cell culture buffer to designated concentrations and sonicated to ensure that they were evenly distributed in the buffer before being added to cells.
AD293 cells were split into 6-well plate (300,000 cells/mL), and then transfected with the pGloSensor™-22F cAMP plasmid and the pcDNA6-GPR3-3× FLAG plasmid (WT receptor or the mutants, F120A^3.36, W260A^6.48, L283F^7.39, A201W^5.46, Y280A^7.36, H96A^2.60 and H96A^2.60/Y280A^7.36) by Lipofectamine 2000 at a ratio of 2:1 (μL:μg). […]

`c1ccc2c(c1)[I+]c1ccccc1-2` [DPI, diphenyleneiodonium chloride] showed an EC50 of 315 µM.
